Our source for the IC50 values is patent US5032577A, “Peptidylaminodiols” (Abbott Laboratories, priority 1987, dated 1991).

Chains of the proteins cited; added tags and fusions are not shown. Residues count along the entry.
UniProt P00797, 67-406: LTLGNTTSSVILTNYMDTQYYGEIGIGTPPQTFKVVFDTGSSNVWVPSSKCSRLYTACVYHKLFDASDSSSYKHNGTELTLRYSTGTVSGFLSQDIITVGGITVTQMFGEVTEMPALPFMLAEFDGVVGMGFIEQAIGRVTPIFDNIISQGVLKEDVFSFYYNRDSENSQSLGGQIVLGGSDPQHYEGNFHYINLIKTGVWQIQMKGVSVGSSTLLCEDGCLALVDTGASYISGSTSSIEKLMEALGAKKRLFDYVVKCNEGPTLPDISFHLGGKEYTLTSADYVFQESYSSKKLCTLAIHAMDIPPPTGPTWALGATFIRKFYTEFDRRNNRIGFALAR

The target of this experiment is T1, human renal renin (Homo sapiens, UniProt P00797).
T1 construct: human renal renin, free from acid proteolytic activity; from tissue
Description: Inhibition of human renal renin in vitro; angiotensin I formed measured by radioimmunoassay. Type of experiment: biochemical.

Molecules are shown by their SMILES. Like-named read-outs stand apart in the source and are kept apart here.

As usually defined, the IC50 is the concentration needed to halve the response being measured. A high value points to a need for much substance. The molecule `CC(=O)N[C@@H](Cc1ccccc1)C(=O)N[C@@H](Cc1c[nH]cn1)C(=O)N[C@@H](CC1CCCCC1)[C@@H](O)[C@@H](O)CC(C)C` [Example 30, Ac-Phe-His Amide of 2(S)-Amino-1-cyclohexyl-3(R),4(S)-dihydroxy-6-methylheptane] registered a concentration for half-maximal inhibition (IC50) (human renal renin free from acid proteolytic activity, renin substrate human angiotensinogen, 37° C., pH 6.0) of 0.75 nM.
Molecule `CC(C)C[C@H](O)[C@H](O)[C@H](CC1CCCCC1)NC(=O)[C@H](Cc1c[nH]cn1)NC(=O)[C@@H](Cc1ccccc1)NC(=O)N1CCOCC1` [Example 174] came in with a half-inhibitory concentration (IC50) of 12 nM.
